The source of these data is US20050191296A1.

The target of assay [1] is soluble CD28 (chimeric sCD28/Fc homodimer, R&D Systems catalogue no. 342-CD) (human) (UniProt P10747). In words: SPR (BIAcore), CD28 immobilized, increasing sB7-2 (FIG. 17D).
The target in assay [2] is soluble B7-2 (B7-2-Fc, R&D Systems catalogue no. 141-B2) (human) (UniProt P42081). As to the kind of experiment: SPR (BIAcore), sCD28 immobilized, sB7-2 as analyte.

In assay [1], “soluble B7-2 (B7-2-Fc, R&D Systems catalogue no. 141-B2) (from UniProt P42081 20-239) (Fc fusion)” showed a dissociation constant Kd of 19 nM. In assay [2], “soluble CD28 (chimeric sCD28/Fc homodimer, R&D Systems catalogue no. 342-CD) (from UniProt P10747 19-152) (Fc fusion)” yielded a Kd of 19 nM.
